# Legend:
# [1] = system: pilocarpine-induced convulsive SE seizures; conditions: cited from earlier work
# pilocarpine-induced ESE = experiment: lithium-pilocarpine electrographic status epilepticus (ESE) model, EEG gamma-band power
# [2] = in vivo; cited from earlier work
# [3] = system: electrically- and chemically-induced seizures; conditions: acute seizure models based on maximum electroshock and metrazol; cited from earlier work
# [4] = administered 30 min after first pilocarpine-induced seizure
compound,measurement,setting,value
NC(=O)N1c2ccccc2C=Cc2ccccc21,"ED50, block of pilocarpine-induced convulsive seizures",[1]; [4],50 mg/kg
CCCC(C(N)=O)C(C)CC (racemic),time of rebound effect,pilocarpine-induced ESE; under some conditions (FIG. 3A-C),7 to 10 h
same,"ED50, block of pilocarpine-induced convulsive seizures",[1]; [4],84 mg/kg
same,"ED97, block of pilocarpine-induced convulsive seizures",[1]; [4],149 mg/kg
CCC(C)C(CC)C(N)=O (stereo not drawn),deleterious effects (e.g. mortality),"pilocarpine-induced ESE; 180 mg/kg, 30 min after first motor seizure",no obvious deleterious effects
same,teratogenicity compared with VPA,[2],distinctly less teratogenic than VPA
same,efficacy against convulsive seizures,"[1]; 0 min (SE onset), 65 mg/kg",showed efficacy
same,ED50 compared with SPD,[3],qualitatively similar to SPD
CN1C(=O)CN=C(c2ccccc2)c2cc(Cl)ccc21,effect on ESE,"pilocarpine-induced ESE; 10-100 mg/kg, 30 min after first motor seizure",no consistent detectable effect on ESE

# From patent US20150038588A1, “COMPOSITIONS AND METHODS OF TREATMENT OF STATUS EPILEPTICUS” (published 2015)
